Laboratory results reported in patent publication US11672800B2, “Combination therapies with EHMT2 inhibitors” (Epizyme, Inc., priority 2017, dated 2023).

System: MeWo
Experiment: In vitro combination study of Compound 205 with a second agent, melanoma cell proliferation (CellTiter Glo, Loewe synergy); note: key: SYN Synergy; ADD Additivity
Assay type: cell-based
Settings: combination with Compound 205, 7 days pre-treatment with Compound 205, then 7 days co-treatment, ATP content, Loewe volume >1 synergy, -1 to 1 additivity
Protocol: On day 14 plates were developed for endpoint analysis using CellTiter Glo to measure ATP content, which was used as an indicator of cell viability. DMSO concentration was kept constant throughout the assay at 0.2% v/v.
All cells were maintained and cultured at 37° C., in a humidified atmosphere and 5% CO2.
Loewe volumes greater than 1 denoted synergy and volumes below −1 denoted antagonism. A value between −1 and 1 denoted additivity.

SMILES	Combinatorial effect (Loewe method) of second agent with Compound 205, MeWo
C#Cc1cccc(Nc2ncnc3cc(OCCOC)c(OCCOC)cc23)c1 [Erlotinib, N-(3-ethynylphenyl)-6,7-bis(2-methoxyethoxy)quinazolin-4-amine]	SYN
Nc1ncn([C@H]2C[C@H](O)[C@@H](CO)O2)c(=O)n1 [Decitabine]	SYN
